Reference: ChEMBL document CHEMBL2396650, “A potent small-molecule inhibitor of the MDM2-p53 interaction (MI-888) achieved complete and durable tumor regression in mice” (J Med Chem, 2013)

Columns and labels:
Assay type in all cases: ADME, Microsome
Liver microsomes [1] = assay: Half life in human liver microsomes
In short: (§1)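 Half-life determined by incubation in mouse, rat and human liver microsomes; T1/2 in minutes.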

Liver microsomes [2] = assay: Half life in rat liver microsomes; in short: as §1
Liver = assay: Half life in mouse liver microsomes; in short: as §1

Q: For `CC(C)(C)C[C@@H]1N[C@@H](C(=O)N[C@H]2C[C@H](NS(C)(=O)=O)C2)[C@H](c2cccc(Cl)c2F)[C@]12C(=O)Nc1cc(Cl)ccc12`, which t1/2 (Liver microsomes [1]) is on record?
A: 0.888 h

Q: And the t1/2 (Liver microsomes [2])?
A: > 1 h

Q: And the t1/2 (Liver)?
A: > 1 h
